From PMC7601674 (2020) come the findings set out here.

The test system of data set [1] is primary porcine brain endothelial cells (PBEC) monolayer.
For data set [2], the system named is bEnd.3 cells (mouse BBB cell line) monolayer.

As to FITC-dextran 40 [FITC-40], in data set [1], the “FITC-dextran 40 (FITC-40) paracellular permeability (Papp)” value was 1.3 ± 0.1 × 10^−6 cm · sec^−1 and the “Transport to the Basal side, percentage of Apical compartment” value is 1.03 ± 0.17%. In data set [2], the “Effect of serum pre-incubation on Papp (A to B and B to A)” value is given as “did not change transport in either direction”; the “FITC-40 Papp” value was 3.3 ± 0.4 × 10^−6 cm.sec^−1.
